Assay [1] is described as follows: In Vitro Assay: In general, Trex HEK293 cells were stably transfected with an inducible expression vector containing the full-length cDNA coding for the desired human sodium channel α-subunit and with an expression vector containing full length cDNA coding for the β1-subunit. Sodium channel expressing cell lines were induced with tetracycline (1 μg/mL) and plated on 384-well PDL-coated plates at ….

Assay [2] can be described thus: cells. Particulars: HEK293.

Consider `CNc1c(F)c(S(=O)(=O)Nc2cscn2)cc(C)c1[C@@H]1CCN(Cc2ccccc2O)C1`, for which, in assay [1], the IC50 was 13 µM. This counts as double-digit micromolar.
`Cc1cccc(CN2CC[C@H](Oc3ccc(S(=O)(=O)Nc4nccs4)cc3Cl)[C@H](C)C2)c1` (relative stereo) registered an IC50 in assay [2] of 6.24 µM.

Values taken from ChEMBL document CHEMBL5728069, “Benzenesulfonamide compounds and their use as therapeutic agents” (2020).
